{"source": "BindingDB's records for doi:10.1016/j.bmcl.2011.09.113", "about": "(Johnson & Johnson Pharmaceutical Research and Development, 2011)", "assay": "Antagonist activity at CCR2 by chemotaxis functional assay", "data": [{"molecule": "NC(=O)C(NC1CCC(c2c[nH]c3ccccc23)CC1)C1CCN(C(=O)/C=C/c2cc(F)cc(F)c2)CC1", "note": "(racemic)", "values": [{"measurement": "IC50", "value": 4, "unit": "nM"}]}]}
